# Antibody variant affinities, Ab-14 light chain, assay B

Reference: Li et al. 2023, doi:10.1038/s41467-023-39022-2. File: FLAb, binding data.

Target peptide (SARS-CoV-2 spike, HR2 region): PDVDLGDISGINAS

Parent scFv Ab-14: VH joined to VL by three GGGGS repeats. Changes lie in the light chain CDRs alone.
VH: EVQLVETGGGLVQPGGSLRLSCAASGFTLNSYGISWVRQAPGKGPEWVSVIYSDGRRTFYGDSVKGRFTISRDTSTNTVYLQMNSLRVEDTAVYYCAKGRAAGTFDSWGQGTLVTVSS
VL: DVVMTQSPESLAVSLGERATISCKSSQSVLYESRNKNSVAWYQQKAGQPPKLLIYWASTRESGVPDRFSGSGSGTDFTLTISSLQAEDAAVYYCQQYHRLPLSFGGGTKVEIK

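Phage display of a naive human antibody library on the peptide gave the parent. Designed CDR sequences, proposed from the first random library and measured here. Group labels follow the data file (Ctrl: baseline library sampled from a position-specific scoring matrix, with some repeated check sequences; En: ensemble of fine-tuned language models; GP: Gaussian process model; HC: hill climbing; Gen: genetic algorithm; Gibbs: Gibbs sampling; a sequence that several methods proposed may carry one label only). Affinity was read by AlphaSeq, a pooled yeast mating assay with surface-displayed partners. The frequency of each diploid, read from paired DNA barcodes, reflects how well the two displayed proteins bind. A regression on co-assayed BCL2-family reference pairs converts the normalised counts of each replicate to an apparent Kd. There are six technical replicates.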

Variants are written as CDR1, CDR2 and CDR3 of the light chain (limits as in the source). Parent: KSSQSVLYESRNKNSVA, WASTRES, QQYHRLPLS.
Variants here have more than six changes.
Kd is apparent (estimated from mating counts) and averaged on the log scale over replicates with a signal. Smaller is tighter.
A pair that was not seen in any replicate is written "nd"; this usually means weak binding, but a binder can also be missed.
The range of this assay differs from that of the first round, and the authors advise against merging the two.
The parent sequence was in this pool as ten entries: three were never detected, three once, and four in most replicates, with averages from 2.2 nM to 240 nM.
The authors averaged sequences with at least three values out of six and counted those with two or fewer as poor binders.
Nonspecific signal, from three strains lacking the peptide, appeared in 4% of pairings of all light chain designs, centred on 430 nM (5% of these signals below 38 nM); values are not corrected for it. Also given: how often the same scFv was detected with the empty control strains.

Variant KLSQSVGYESRMVNNVA | NASTRED | QQYHRLPLS [GP_Gibbs] gave 730 pM (6 of 6 replicates; controls 2 of 18). For KLRMSTAYLTENKNSVA | ELTTRGN | QQYFRLPLS [En_HC], the assay gave 2.4 nM (6 of 6 replicates; controls 0 of 18). Variant KISQMSGIESITHNSVA | QTSTRES | QQYDRLPLS [En_HC] gave 2.6 nM (6 of 6 replicates; controls 3 of 18). With KLFGGILEQERIDYSIA | YATLSVD | QQYDRLPLS [En_Gibbs] the result was nd (0 of 6 replicates; controls 0 of 18). Variant NFSQMVSTGQTLRNSVA | HASTRFN | QQYHRLPLI [En_HC] showed 210 nM (5 of 6 replicates; controls 1 of 18). Variant KLYESMGYLSRNKNSIA | DMSRREN | QQYHRLPLS [En_HC] showed 560 pM (6 of 6 replicates; controls 4 of 18). Variant ALELEEMQMMKDINSIA | NTEYKTN | QQYVRLPFS [En_Gibbs] showed 3.9 nM (6 of 6 replicates; controls 2 of 18). With LMNERMMMGENQQHNIA | NAAHLVK | QQYHRLPLG [En_Gibbs] the result was 4.6 nM (6 of 6 replicates; controls 0 of 18).

For FFSLIQGSYGEANNSIA | ERNERAP | QQYGRLPLV [En_Gibbs], the assay gave 580 nM (6 of 6 replicates; controls 1 of 18). Variant KLQWYNTEASMSARNIA | DGAQRLN | QQYMRLPLM [En_Gibbs] showed 570 pM (6 of 6 replicates; controls 0 of 18). Variant KISQMFNVGTKNTNSLA | EMNTRGN | QDYHRLPLS [En_HC] showed 52 nM (6 of 6 replicates; controls 1 of 18). With TISQMSTMFSQSINNVA | EVSTRLN | QQYDRLPLM [En_Gen] the result was 3.9 nM (6 of 6 replicates; controls 0 of 18). With KIKELFAMWARAQGNVA | DATQRCT | QQYSRLPIT [En_Gibbs] the result was 2.6 nM (6 of 6 replicates; controls 0 of 18). Variant NLSIQRQHQNMDANAVA | QTEIREV | QQYAQLPLA [En_Gibbs] showed 2.8 nM (6 of 6 replicates; controls 1 of 18). Variant MLSEFMHMLGAKKNSIA | DLVLRAN | QQYHRLPLS [En_Gen] showed 2.5 nM (6 of 6 replicates; controls 0 of 18). With LISGVWDYGSRNYNSVA | QTSTREQ | QQYDRLPLE [En_HC] the result was 15 nM (6 of 6 replicates; controls 0 of 18).

For KFMQSWLYWSRNKNSVA | NASQREH | QQYHRLPLS [GP_Gibbs], the assay gave 4.6 nM (6 of 6 replicates; controls 0 of 18). With MMSQVTGMESRHRNNVA | QTSTRES | QQYDRLPLI [En_Gen] the result was 6.6 nM (6 of 6 replicates; controls 1 of 18). Variant KLEGSKEYESRWKNSVA | HASVREV | QQYHRLPLS [GP_Gibbs] showed 4.5 nM (6 of 6 replicates; controls 0 of 18). For KHSPSEEYESRLKNSVA | HASTRCS | QQYHRLPLS [GP_Gibbs], the assay gave 7.9 nM (6 of 6 replicates; controls 0 of 18). For HMSMLTLQGMRARNSVA | QMTTREN | QQYDHLPLA [En_Gen], the assay gave 54 nM (2 of 6 replicates; controls 0 of 18). With KIAQEVWMESRNTNSVA | KASTRES | QQYHRLPLS [Ctrl] the result was 3.1 nM (6 of 6 replicates; controls 0 of 18). For KLYQNVGTMSHNTQSIA | DMERRED | QQYHRLPLS [En_HC], the assay gave 2.1 nM (6 of 6 replicates; controls 3 of 18). With KLSQSFPYESRNKMSVA | NADTREE | QQYHRLPLS [GP_Gibbs] the result was 950 pM (6 of 6 replicates; controls 1 of 18).

With SLHMMPMVGYANNANVA | NASQLFS | QHYFRLPLQ [En_Gibbs] the result was 3.1 nM (6 of 6 replicates; controls 2 of 18). Variant KIGMTLHQLMHQKNNVA | DLVMREQ | QQYHRLPLS [En_Gen] gave 1.9 nM (6 of 6 replicates; controls 1 of 18). Variant KISYLQNQTFEESNNVA | EMVTREK | QQYNRLPLS [En_Gen] gave 710 nM (4 of 6 replicates; controls 1 of 18). For KIRVHNLMFYQNENSIA | GQSNRAE | QQYYHLPLT [En_Gibbs], the assay gave 1.4 nM (6 of 6 replicates; controls 0 of 18). Variant MISQLINMGSFAINSVA | QASTRCN | QQYDRLPLM [En_Gen] showed 29 nM (6 of 6 replicates; controls 0 of 18). Variant KVMQSVLYEDRNANNVA | NGSTRCS | QQYHRLPLS [GP_Gibbs] gave 1.3 nM (6 of 6 replicates; controls 2 of 18). With MISSVMGINNMYQSSVA | QAETRVE | QQYDRLPLA [En_Gen] the result was 7.2 nM (6 of 6 replicates; controls 0 of 18). Variant KIHQSVLYEDRNINSVA | SASQRYS | QAYHRLPLS [GP_Gibbs] gave 4.3 nM (6 of 6 replicates; controls 1 of 18).

For TIAQSMLYVSNLKNSIA | QAETRES | QQYHRLPIS [En_HC], the assay gave 13 nM (6 of 6 replicates; controls 1 of 18). For KLEMDTLGQKPKQNNIA | NARVSWE | QQYYMLPLS [En_Gibbs], the assay gave 8.1 nM (6 of 6 replicates; controls 1 of 18). Variant MISDLMLQGSRAKNPIA | NAETREY | QQYHRLPLE [En_HC] showed 5.0 nM (6 of 6 replicates; controls 1 of 18). Variant KCAQSQDYESRNKNWVA | NASQRES | QQYHRLPLS [GP_Gibbs] gave 2.6 nM (6 of 6 replicates; controls 1 of 18). For KFQNGLERGNQGYSAVA | DVTEKGA | QQYLQLPLM [En_Gibbs], the assay gave 8.4 nM (6 of 6 replicates; controls 0 of 18). With TLTQVQGMESHNKDNVA | DLSTRGN | QQYNRLPLS [En_HC] the result was 280 pM (6 of 6 replicates; controls 0 of 18). With MISQMYNMGQFAINSVA | QASERNT | QQYDRLPLT [En_Gen] the result was 35 nM (6 of 6 replicates; controls 0 of 18).

Excerpt, the first 6 entries:

CDR-L1	CDR-L2	CDR-L3	group	Kd (apparent)	seen in	signal with controls
KLSQSVGYESRMVNNVA	NASTRED	QQYHRLPLS	GP_Gibbs	730 pM	6 of 6	2 of 18
KLRMSTAYLTENKNSVA	ELTTRGN	QQYFRLPLS	En_HC	2.4 nM	6 of 6	0 of 18
KISQMSGIESITHNSVA	QTSTRES	QQYDRLPLS	En_HC	2.6 nM	6 of 6	3 of 18
KLFGGILEQERIDYSIA	YATLSVD	QQYDRLPLS	En_Gibbs	nd	0 of 6	0 of 18
NFSQMVSTGQTLRNSVA	HASTRFN	QQYHRLPLI	En_HC	210 nM	5 of 6	1 of 18
KLYESMGYLSRNKNSIA	DMSRREN	QQYHRLPLS	En_HC	560 pM	6 of 6	4 of 18